These are literature values, as cited in patent US20220387398A1, “IMMUNE TOLERIZATION AGENTS AND POTENTIATORS” (priority 2019, published 2022).

Amino acid sequences for entries named in this document (tags omitted). Residues count along the entry.
UniProt P06276, 29-602, species assumed: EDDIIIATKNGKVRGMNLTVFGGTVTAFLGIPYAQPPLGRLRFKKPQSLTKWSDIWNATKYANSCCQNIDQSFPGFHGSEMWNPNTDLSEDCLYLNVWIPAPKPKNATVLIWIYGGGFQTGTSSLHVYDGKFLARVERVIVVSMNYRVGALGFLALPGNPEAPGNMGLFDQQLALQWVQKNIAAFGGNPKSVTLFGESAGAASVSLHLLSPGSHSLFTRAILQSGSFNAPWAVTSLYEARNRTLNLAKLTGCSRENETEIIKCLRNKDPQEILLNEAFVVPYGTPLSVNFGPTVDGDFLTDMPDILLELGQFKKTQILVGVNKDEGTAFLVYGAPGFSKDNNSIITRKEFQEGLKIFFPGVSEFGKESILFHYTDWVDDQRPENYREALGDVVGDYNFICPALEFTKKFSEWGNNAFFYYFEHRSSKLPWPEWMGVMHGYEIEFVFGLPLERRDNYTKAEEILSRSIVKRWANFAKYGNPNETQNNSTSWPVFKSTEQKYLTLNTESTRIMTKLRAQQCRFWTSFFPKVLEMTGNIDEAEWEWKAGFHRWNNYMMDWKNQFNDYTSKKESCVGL

This data set addresses BChE (blood) (Homo sapiens, UniProt P06276). The following applies: quantity and unit not given; cited from earlier work.

Consider `CCN(C)C(=O)Oc1cccc([C@H](C)N(C)C)c1` [Rivastigmine, rivastigmine], for which the “Esterase BChE (blood)” value is 280 ± 110.
